In ChEMBL document CHEMBL1131608, “Structure-activity relationships and molecular modeling of 3, 5-diacyl-2,4-dialkylpyridine derivatives as selective A3 adenosine receptor antagonists” (J Med Chem, 1998) one finds Ki data, which are given here for one compound.

The chains behind the UniProt entries cited, without tags or fusion partners.
UniProt P0DMS8, whole entry: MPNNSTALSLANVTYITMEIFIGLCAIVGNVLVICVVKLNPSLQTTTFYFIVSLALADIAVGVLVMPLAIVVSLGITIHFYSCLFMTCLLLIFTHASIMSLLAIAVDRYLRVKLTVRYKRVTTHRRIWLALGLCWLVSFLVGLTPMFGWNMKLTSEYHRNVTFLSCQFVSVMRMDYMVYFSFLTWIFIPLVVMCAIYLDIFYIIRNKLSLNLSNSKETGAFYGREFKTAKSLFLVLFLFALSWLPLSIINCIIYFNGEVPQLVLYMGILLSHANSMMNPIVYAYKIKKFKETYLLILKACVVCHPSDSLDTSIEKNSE

The target of the experiment is Adenosine receptor A3 (Homo sapiens, UniProt P0DMS8). The experiment in a line: Displacement of [125I]AB-MECA from adenosine A3 receptor from HEK293 cell membranes. It is filed as cell-based. For orientation: Loss of bound radioactivity is the signal in a displacement assay; it reports binding, not function.

For `CNC(=O)[C@H]1O[C@@H](n2cnc3c(NCc4ccc(N)c(I)c4)ncnc32)[C@H](O)[C@@H]1O`, affinity was put at a Ki of 1.5 nM.

One may read the Ki as the dissociation constant of the complex between target and ligand, obtained from inhibition or displacement. A low value points to tighter binding.
